Compound activity (PubChem BioAssay)
CendR NRP1 mod = NRP-1/CendR interaction modulation; FAM-RPARPAR peptide binding to NRP-1, fluorescence polarization; inhibition, % at 25 µM; hit rate 0.85% among 360,000; AID 602438;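 active = inhibition or corrected inhibition above about 18%, plus a signal ratio from 0.5 to 1.5, limit read from the data, passing the limit was not always enough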
Yeast UUG start = modulators of start codon recognition fidelity in yeast; AID 602363; hit rate 0.13% among 350,000; activity score, % at 18.7 µM; S. cerevisiae UUG-firefly luciferase reporter, luminescence/redox ratio;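 active = replicate mean at a twofold rise or more, about +100% in these data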;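 note: firefly luciferase made from a UUG start codon reports start codon fidelity; reporter light over untreated wells divided by growth signal over untreated wells; some hits fall short of that in this replicate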
ASAP1 inh = ASAP1 ArfGAP inhibition; Q9ULH1; ASAP1-stimulated ARF1 GTP hydrolysis, GDP FP detection; inhibition, % at 16.5 µM; hit rate 0.19% among 360,000; in the data active = inhibition above about 25%;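 note: 0% = vehicle with enzyme and substrate and 100% = no enzyme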
MC4R antagonist = antagonists of human melanocortin 4 receptor (MC4R). P32245. MC4R-expressing cells, MTII-stimulated cAMP, LANCE TR-FRET. inhibition, % at 6.5 µM. hit rate 0.48% among 360,000. AID 540295;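 active = inhibition above its plate's cutoff, the mean of tested wells on that plate plus 3 SD, cut at about 29% in these data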;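 note: 0% = Melanotan II alone and 100% = Melanotan II plus saturating MCL0020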
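Test system: U2OS cells stably expressing human melanocortin 4 receptor (MC4R); also added: Melanotan II challenge; compound: 6.5 µM single dose; timing: 30-min compound preincubation, 1-h Melanotan II challenge, 1-h detection, room temperature; signal: Eu-cAMP/anti-cAMP TR-FRET, emission 671 nm; repeats: one well per compound, no replicates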
MC4R barr agon = human MC4R agonism via beta-arrestin. P32245. U2OS MC4R beta-arrestin complementation, luminescence; percent of melanotan II response, DMSO zero. activation, % at 8.9 µM. hit rate 0.98% among 360,000. AID 540308;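 active = activation above a per-plate cutoff, the mean activation of sample wells on that plate plus 3 SD, cut at about 8% in these data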
ARFGAP1 inhibitor = inhibitors of rat ARFGAP1 | Q62848 | Arfgap1-stimulated ARF1 GTP hydrolysis, GDP FP detection | inhibition, % at 16.5 µM | hit rate 0.26% among 360,000;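 active = inhibition above a per-plate limit, mean inhibition of low control wells plus 3 SD, cut at about 25% in these data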;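 note: 0% = DMSO wells with enzyme and 100% = wells lacking Arfgap1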
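Assay system: Rat Arfgap1 GAP domain (His6, aa 1-136), purified enzyme | Buffer or medium: HEPES 25 mM pH 7.5, NaCl 150 mM, MgCl2, DTT | Schedule: GTP hydrolysis reaction 2 h at 25 °C | Signal: FP of antibody-bound GDP Alexa 633 tracer, ex 620/em 688 nm | Measure: Percent inhibition of Arfgap1-stimulated GTP hydrolysis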
An asterisk follows results filed as active; . = no result given. Compounds with a hit are over-represented: about 2.3% of the library has one in this group of screens.

#1 Cc1ccc(S(=O)(=O)N2C[C@H](O)COC[C@H]3O[C@@H](CC(=O)NCCN4CCCCC4)CC[C@@H]32)cc1
#2 C[C@@H]1CCCCO[C@@H](CN(C)Cc2ccc(C(=O)Nc3ccccc3N)cc2)[C@@H](C)CN([C@H](C)CO)C(=O)c2cc(NC(=O)Nc3ccc4c(c3)OCO4)ccc2O1
#3 O=[N+]([O-])c1ccc2c(c1)C(N1CCN(CCO)CC1)Cc1ccc(F)cc1S2 (centres undefined)
#4 OCCN1CCN(C2CCC(c3ccc(F)cc3)c3ccc(F)cc32)CC1 (centres undefined)
#5 COC1=C(N)C(=O)c2nc(C)ccc2C1=O
#6 Cc1cc(S(=O)(=O)c2ccc([N+](=O)[O-])cn2)ccc1Br

assay / compound | 1 | 2 | 3 | 4 | 5 | 6
CendR NRP1 mod | . | . | 1 | 5 | 31* | 22*
Yeast UUG start | -11 | -11 | -2 | 3 | . | .
ASAP1 inh | . | . | -5 | 6 | 18 | 3
MC4R antagonist | . | . | . | 6 | -9 | 4
MC4R barr agon | . | . | . | 9.0* | -1 | -2
ARFGAP1 inhibitor | . | . | 1 | 7 | 21 | -1

#7 Cc1ccc(S(=O)(=O)c2ccc([N+](=O)[O-])cn2)cc1
#8 CC1CN(C(=S)Nc2ccc(F)cc2F)CC(C)O1 (centres undefined)
#9 COc1cc(CNCCc2ccccc2)cc(Br)c1OCC(=O)Nc1ccccc1C
#10 CNCc1cc(Br)c(OCC(=O)Nc2ccccc2OC)c(OC)c1
#11 COc1ccc(-c2csc(C(O)c3ccc(F)c(F)c3)n2)cn1 (centres undefined)
#12 Cc1occc1C(=O)N1CCCC(Nc2ccc(F)cc2)C1 (centres undefined)

assay / compound | 7 | 8 | 9 | 10 | 11 | 12
CendR NRP1 mod | 6 | 26* | -2 | 4 | 21* | 6
Yeast UUG start | -30 | -11 | . | . | -2 | -8
ASAP1 inh | 2 | -5 | 0 | 6 | 2 | 1
MC4R antagonist | 17 | -1 | -3 | 1 | 3 | 4
MC4R barr agon | -3 | -2 | 8.6* | -1 | -1 | -1
ARFGAP1 inhibitor | 1 | 6 | 0 | 8 | 9 | 7

#13 Cc1ccc2nccc(C(=O)N3CCCC(Nc4ccc(F)cc4)C3)c2c1 (centres undefined)
#14 CCCOC(=O)c1ccc(Oc2cn[nH]c2-c2ccc(O)cc2O)cc1
#15 CNC[C@@H]1Oc2cc(C#CCOC)ccc2S(=O)(=O)N([C@@H](C)CO)C[C@@H]1C
#16 CCN(c1cccc(C)c1)S(=O)(=O)c1ccc(-n2cccn2)cc1
#17 Cc1ccc(C)c(NS(=O)(=O)c2ccc(-n3cccn3)cc2)c1
#18 CCc1cccc(NS(=O)(=O)c2ccc(-n3cccn3)cc2)c1

assay / compound | 13 | 14 | 15 | 16 | 17 | 18
CendR NRP1 mod | 22* | -6 | . | 22* | -7 | -2
Yeast UUG start | -15 | . | 5 | -4 | -3 | 2
ASAP1 inh | 13 | -9 | . | -8 | 0 | 5
MC4R antagonist | 17 | -4 | . | 10 | 3 | 11
MC4R barr agon | -3 | 9.5* | . | -3 | 0 | 8.3*
ARFGAP1 inhibitor | 13 | 0 | . | -3 | 7 | -5

Values by screen from above:
Compounds 13 to 18 in Yeast UUG start read -15, ., 5, -4, -3, 2
Compounds 13 to 18 in MC4R antagonist read 17, -4, ., 10, 3, 11
Compounds 13 to 18 in MC4R barr agon read -3, 9.5*, ., -3, 0, 8.3*

Next part:
#19 CCN(c1cccc(C)c1)S(=O)(=O)c1csc(C(N)=O)c1
#20 Cc1ccc(NS(=O)(=O)c2ccc(-n3cccn3)cc2)cc1C
#21 C[C@H](CO)N1C[C@H](C)[C@H](CN(C)Cc2ccccc2)Oc2ccc(NC(=O)C3CC3)cc2C1=O
#22 CC1Cc2ccccc2N1C(=O)CSc1nnc2c(n1)[nH]c1ccc(F)cc12 (centres undefined)
#23 S=C(Nc1ccc(Cl)cc1)c1nc2ccccc2s1
#24 O=S(=O)(Nc1cccc(Cl)c1)c1cccc(-n2cnnn2)c1

assay / compound | 19 | 20 | 21 | 22 | 23 | 24
CendR NRP1 mod | 6 | 3 | . | 22* | -5 | 20*
Yeast UUG start | -5 | -20 | -6 | -2 | -21 | -13
ASAP1 inh | 15 | 1 | . | -4 | 14 | -9
MC4R antagonist | 15 | 10 | . | -5 | -3 | 0
MC4R barr agon | 0 | 9.4* | . | -2 | 8.6* | -1
ARFGAP1 inhibitor | 12 | -3 | . | -2 | -4 | 6

#25 Cc1cccc(OCc2n(CC(=O)OC3CC(C)CCC3C(C)C)c3ccccc3[n+]2C)c1 (centres undefined)
#26 CCCC(=O)Nc1ccc2c(c1)OC[C@@H](C)N(C(=O)C1CCCC1)C[C@H](C)[C@H](OC)CN(C)C2=O
#27 COc1ccc(Cc2[nH]n3c(=O)cc(C(C)C)nc3c2-c2ccccc2)cc1
#28 C[C@H](CO)N1C[C@H](C)[C@H](CN(C)C(=O)c2cccnc2)Oc2cc(C3=CCCC3)ccc2S1(=O)=O
#29 O=C1N/C(=C/c2ccc(N3CCCC3)cc2)C(=O)N1c1ccccc1
#30 O=C1/C(=C/c2ccc(N3CCCC3)cc2)NC(=S)N1C1CC1

assay / compound | 25 | 26 | 27 | 28 | 29 | 30
CendR NRP1 mod | 9 | . | 18* | . | -39 | 126
Yeast UUG start | . | 13 | . | -5 | -15 | -6
ASAP1 inh | . | . | 2 | . | 6 | 6
MC4R antagonist | -3 | . | 0 | . | -12 | 3
MC4R barr agon | 23* | . | -6 | . | 8.5* | 1
ARFGAP1 inhibitor | . | . | 2 | . | -2 | 3

#31 O=C(CC1CC1)N[C@H]1CC[C@H](CCNS(=O)(=O)c2ccc(F)cc2)O[C@@H]1CO
#32 Cc1ccc(C(=O)CCC(=O)Nc2cccc(C(F)(F)F)c2)cc1C
#33 Cc1ccc(C(=O)CCC(=O)Nc2cccc(C(F)(F)F)c2)cc1
#34 O=C(Nc1ccc(CN2CCOCC2)cc1)c1ccc(-c2cccc([N+](=O)[O-])c2)o1
#35 COc1ccccc1C(=O)N1C[C@H]2[C@@H](c3ccccc31)[C@H](CO)N2C(=O)Cc1ccccc1
#36 C[C@@H]1CN([C@H](C)CO)C(=O)c2cccc(NC(=O)c3cnccn3)c2O[C@H]1CN(C)C(=O)Nc1ccccc1

assay / compound | 31 | 32 | 33 | 34 | 35 | 36
CendR NRP1 mod | . | 1 | 26* | 10 | . | .
Yeast UUG start | -3 | -8 | 8 | -13 | 0 | 1
ASAP1 inh | . | -4 | -8 | 37* | . | .
MC4R antagonist | . | -2 | -2 | 10 | . | .
MC4R barr agon | . | 1 | 5 | -2 | . | .
ARFGAP1 inhibitor | . | 6 | -3 | 37* | . | .

One compound at a time, as listed above:
Shown for `O=C(Nc1ccc(CN2CCOCC2)cc1)c1ccc(-c2cccc([N+](=O)[O-])c2)o1` = CendR NRP1 mod = 10; Yeast UUG start = -13; ASAP1 inh = 37*; MC4R antagonist = 10; MC4R barr agon = -2; ARFGAP1 inhibitor = 37*
Shown for `C[C@@H]1CN([C@H](C)CO)C(=O)c2cccc(NC(=O)c3cnccn3)c2O[C@H]1CN(C)C(=O)Nc1ccccc1` = CendR NRP1 mod = .; Yeast UUG start = 1; ASAP1 inh = .; MC4R antagonist = .; MC4R barr agon = .; ARFGAP1 inhibitor = .

More compounds follow.
#37 COc1ccc(NC(=O)CN(c2ccc(C)cc2)S(=O)(=O)c2c(C)nn(C)c2C)cc1
#38 COc1ccc2nc(NC(=O)CN(c3ccc(C)cc3)S(=O)(=O)c3c(C)nn(C)c3C)sc2c1
#39 Cc1ccsc1C(=O)N1CCCC(CO)(Cc2ccccc2F)C1 (centres undefined)
#40 Cc1cc(C)c(S(=O)(=O)NCCc2ccccc2)c(C)c1
#41 CC(C)NC(=O)N(C)C[C@@H]1Oc2cc(C3=CCCC3)ccc2S(=O)(=O)N([C@H](C)CO)C[C@@H]1C
#42 COc1ccc([C@H]2/C=C\CN(S(C)(=O)=O)[C@@H](C)C(=O)N2Cc2ccc(F)cc2)cc1
#43 COc1ccc(C2/C=C\CN(C(=O)C3CC3)[C@H](Cc3ccccc3)C(=O)N2Cc2ccc(F)cc2)cc1 (some centres undefined)
#44 COc1ccc([C@H]2/C=C\CN(C(=O)C3CC3)[C@@H](C)C(=O)N2Cc2ccc(F)cc2)cc1
#45 CC(C)NC(=O)N(C)C[C@H]1Oc2ncc(C#CC3(O)CCCC3)cc2C(=O)N([C@H](C)CO)C[C@H]1C

assay / compound | 37 | 38 | 39 | 40 | 41 | 42 | 43 | 44 | 45
CendR NRP1 mod | 14 | -14 | 21* | 3 | . | 22* | 3 | 33* | .
Yeast UUG start | -27 | 9 | 1 | . | -14 | -13 | -10 | -21 | 10
ASAP1 inh | -4 | 7 | -13 | 6 | . | 0 | . | 4 | .
MC4R antagonist | 1 | 19 | -3 | -8 | . | 8 | 1 | 3 | .
MC4R barr agon | 1 | -1 | -4 | 8.4* | . | -1 | 1 | -2 | .
ARFGAP1 inhibitor | 3 | 28* | 9 | 3 | . | 1 | . | -13 | .
